Tests used:
Cannabinoid receptor 1 [1] = biological target: T1, Cannabinoid receptor 1 (Homo sapiens, UniProt P21554); test: Agonist activity at human CB1 receptor stably expressed in CHO-RD-HGA16 cells assessed as increase in intracellular calcium mobilization at 10 uM by FLIPR assay relative to CP55940; format: functional, cell-based
Cannabinoid receptor 1 [2] = biological target: T1, Cannabinoid receptor 1; test: Negative allosteric modulation of human CB1 receptor stably expressed in CHO-RD-HGA16 cells assessed as inhibition of CP55940-induced intracellular calcium mobilization incubated for 15 mins by FLIPR assay; format: functional, cell-based

Sequences of proteins named here, by UniProt entry; tags and fusion partners are left off.
UniProt P21554, whole entry: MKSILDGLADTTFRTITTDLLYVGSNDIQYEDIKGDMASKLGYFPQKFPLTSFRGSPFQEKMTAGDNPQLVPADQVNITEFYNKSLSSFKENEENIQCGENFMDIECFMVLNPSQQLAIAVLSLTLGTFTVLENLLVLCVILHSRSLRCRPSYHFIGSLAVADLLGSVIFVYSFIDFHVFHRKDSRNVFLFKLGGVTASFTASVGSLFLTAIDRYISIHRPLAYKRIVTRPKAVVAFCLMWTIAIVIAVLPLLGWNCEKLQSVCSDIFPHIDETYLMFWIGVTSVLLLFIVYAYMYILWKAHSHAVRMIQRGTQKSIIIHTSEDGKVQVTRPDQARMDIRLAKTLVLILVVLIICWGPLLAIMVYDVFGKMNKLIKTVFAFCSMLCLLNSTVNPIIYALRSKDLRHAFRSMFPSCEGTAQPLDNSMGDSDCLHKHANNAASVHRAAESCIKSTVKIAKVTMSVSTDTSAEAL

SMILES	Activity (Cannabinoid receptor 1 [1])	IC50 (Cannabinoid receptor 1 [2])
O=c1c(NCCc2ccc(Cl)cc2Cl)c(Nc2ccc(Cl)cc2)c1=O	< 30%	
O=C(Nc1ccc(Cl)cc1)Nc1cccc(-c2cccc(N3CCCC3)n2)c1		29.5 nM
